By UniProt entry, the sequences of proteins in these tests, tags left out.
UniProt Q8N6T7, whole entry: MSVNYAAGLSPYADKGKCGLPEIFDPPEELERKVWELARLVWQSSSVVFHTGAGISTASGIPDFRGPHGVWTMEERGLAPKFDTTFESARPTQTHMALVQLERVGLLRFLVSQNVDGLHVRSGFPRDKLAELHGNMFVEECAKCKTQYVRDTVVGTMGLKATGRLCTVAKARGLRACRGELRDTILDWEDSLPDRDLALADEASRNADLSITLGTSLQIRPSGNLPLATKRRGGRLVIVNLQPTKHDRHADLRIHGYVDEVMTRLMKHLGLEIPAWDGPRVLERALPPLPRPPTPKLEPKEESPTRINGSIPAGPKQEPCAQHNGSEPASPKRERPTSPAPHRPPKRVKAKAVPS

According to ChEMBL document CHEMBL5360531, “Pyrazolone derivatives as potent and selective small-molecule SIRT5 inhibitors” (Eur J Med Chem, 2023):

Experiments:
[1] = molecular target: T1, NAD-dependent protein deacetylase sirtuin-2 (Homo sapiens) (UniProt Q8IXJ6); assay: Inhibition of human SIRT2 at 800 uM by fluorescence based analysis
T1 sequence (whole entry): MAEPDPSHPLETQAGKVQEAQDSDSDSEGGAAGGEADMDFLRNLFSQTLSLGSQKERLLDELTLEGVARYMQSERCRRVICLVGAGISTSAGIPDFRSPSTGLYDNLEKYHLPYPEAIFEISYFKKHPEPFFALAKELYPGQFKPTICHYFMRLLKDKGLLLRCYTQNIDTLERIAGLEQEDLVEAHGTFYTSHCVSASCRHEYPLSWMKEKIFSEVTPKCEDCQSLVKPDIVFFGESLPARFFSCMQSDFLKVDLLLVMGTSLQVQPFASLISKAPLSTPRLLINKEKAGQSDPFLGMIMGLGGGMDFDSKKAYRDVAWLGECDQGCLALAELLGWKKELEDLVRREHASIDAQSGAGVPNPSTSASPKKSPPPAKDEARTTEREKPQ

[2] = molecular target: NAD-dependent protein deacylase sirtuin-6 (Homo sapiens) (UniProt Q8N6T7); assay: Inhibition of human SIRT6 at 800 uM by fluorescence based analysis

- inhibition [1]: inactive
- inhibition [2]: inactive
Compound: CC1=NN(c2nc(-c3ccc(Cl)cc3)cs2)C(=O)/C1=C/c1ccc(C(=O)O)cc1

Activity calls are given as the source filed them. No cut-off for these calls is given here.
